{"source": "patent US4136193A", "about": "“Anti-depressive substituted 1-dimethylaminopropyl-1-phenyl phthalans” (Kefalas A/S, priority 1976, dated 1979)", "test_system": "14C-5-HT-uptake in rabbit blood platelets", "assay": "Inhibition of 14C-5-HT-uptake in rabbit blood platelets in vitro", "assay_type": "cell-based", "conditions": "Oryctolagus cuniculus, Platelet, pH 7.2, read-out: C14 5-HT uptake inhibitory concentration IC50", "protocol": "Two ml of rabbit platelet-enriched plasma, containing EDTA as an anticoagulant, were incubated with test compound and 2 ml of 0.05 M Na-P-buffer, pH 7.2, for 5 minutes at 37° C. […] The incubation was terminated by transferring the test tubes to an ice bath, and the platelets were isolated by centrifugation (~4000 g, 5 min., 4° C.). After draining, the platelets were gently washed with 4 ml of ice-cold saline, and the remaining radioactivity was determined. The uptake in the test samples was calculated in percent of the uptake in the control group and plotted against the concentration of test compound on semilogarithmic probability paper, from which the IC50-value was determined.", "data": [{"compound": "CNCCC=C1c2ccccc2CCc2ccccc21", "note": "[Nortriptyline, reference compound]", "values": [{"measurement": "IC50", "result": 3.3, "unit": "µM"}]}]}
